Test: Single-dose toxicity of clinical VEGFR2 inhibitors (FDA data)
Settings: rats; MTD 500 mg/kg vs NOAEL >3000 mg/kg

| Structure (SMILES) | MTD as share of the NOAEL value for YLT192 [%] |
| --- | --- |
| CNC(=O)c1cc(Oc2ccc(NC(=O)Nc3ccc(Cl)c(C(F)(F)F)c3)cc2)ccn1 [sorafenib] | 17 |
| CCN(CC)CCNC(=O)c1c(C)[nH]c(/C=C2\C(=O)Nc3ccc(F)cc32)c1C [sunitinib] | 17 |

From publication PMC4129416, “YLT192, a Novel, Orally Active Bioavailable Inhibitor of VEGFR2 Signaling with Potent Antiangiogenic Activity and Antitumor Efficacy in Preclinical Models” (Scientific Reports, 2014)
